Earlier results on 1 substance are cited in patent US7972859B2, “Authentication of ingestible products using saccharides as markers” (Authentix, Inc., priority 2006, dated 2011).

This series addresses Maltose binding protein (Escherichia coli, UniProt P0AEX9). Conditions: T-line comparison; for maltose 'saturated at a KD of'; cited from earlier work.

pKd: −log10 of the molar value.

With amylose, the pKd is below 4.00.
